The values below come from patent publication US10774053B2, “HIV protease inhibitors” (Gilead Sciences, Inc., priority 2017, dated 2020).

One test concerns the target recombinant HIV protease (Human immunodeficiency virus type 1 group M subtype B (isolate HXB2) (HIV-1), UniProt P04585). It counts as biochemical. As to conditions: fluorogenic enzymatic assay, read-out: HIV PI IC50.
Test [1] has as its system HIV-1 (IIIB) in MT-4 cells. In words: microbe, parasite or virus in culture. It counts as cell-based. As to conditions: Human immunodeficiency virus 1, IIIB, MT4, read-out: MT4 EC50 (nM).

By IC50 is commonly meant the concentration at which inhibition is half-maximal. As usually defined, the EC50 is the concentration at which the effect is half-maximal. `CC(C)(C)C[C@]1(c2ccc(-c3cnn(C4COC4)c3)cc2)NC(=N)N([C@H](COC(=O)N2CC(F)(F)C2)c2ccc(Cl)c(-c3ncn[nH]3)c2)C1=O` [Compound 100]: at recombinant HIV protease, the IC50 turned out to be 0.0025 µM. In test [1], the EC50 came to 171 nM.
